# Tests used:
# [1] = test system: core clock gene mRNAs in liver; assay: Four day study, liver core clock gene mRNA, ICR mice; format: in vivo, mouse; conditions: 50 mg/kg PO BID 4 days, ZT6
# Description: Male ICR mice (weighing 30-35 g), obtained from Charles River Laboratories (Hollister, Calif.), were used for the experiment following at least 3 days of acclimation. Mice were dosed with vehicle (WFI or 10% Kolliphor) or compound (50 mg/kg, dose volume 5 mL/kg, PO) for 4 days BID (twice a day), beginning in the afternoon of the first day. The last dose of compound or vehicle was administered on the morning of harvest. On the day of harvest (6 hours following the final dose), mice were euthanized by CO2 asphyxiation and 50 mg of liver tissue was excised and placed in a tube containing 500 μl of RNA later.
# E.Z.N.A.® HP Total RNA Isolation Kits (R6812-01 and the protocol described in the Manual, Revised 2010) were utilized to prepare and isolate RNA from the liver samples. To prepare the RNA samples, 10-30 mg of sample was removed from RNA-Later and placed in a 1.5 ml microfuge tube. […]
# RediPlate 96 RiboGreen RNA Quantification Kit (Invitrogen) RediPlate standard curve was prepared by transferring 20 μl reconstituted RNA standard to a RediPlate well reconstituted in 180 μl RediPlate TE buffer. […] After transferring 5 μl to RediPlate well reconstituted in 195 μl TE buffer and incubating 10 min. at RT, Fluorescence Intensity of wells with standards and samples were read in a Tecan M200 with Excitation set at 480 nm and Emission set at 520 nm with the gain set to ˜70%. […]
# [2] = Pharmacokinetic analysis in ICR mice (plasma and liver); format: in vivo; conditions: male, plasma, po, mouse, 50 mg/kg P.O., Table 4, read-out: Total Plasma AUC, AUC (0-last)
# Description: Male ICR mice (weighing 30-40 g, Charles River Laboratories) were used for the experiment with n=3 mice for each experimental group (27 mice total for the study). […] Blood and liver tissue were collected at the following time points after administration: 15, 30, 60, 90 minutes, 3, 6, 12 and 24 hours. A control group of animals (TO) was also sampled. Animals were euthanized with CO2 and the blood collected from the heart using cardiac puncture, transferred to an EDTA tube, and then centrifuged at 5400 rpm for 5 minutes at 4° C. The resultant plasma was frozen using dry ice and then stored at −80° C. until ready for assay. Liver tissue was removed from each animal, 0.5 g was collected in an eppendorff, frozen and submitted for pharmacokinetic measurement. […] Raw data was analyzed using WinNonLin for PK parameters (Cmax, Tmax, elimination t^1/2, MRT (mean residence time), AUC (area under the curve)−(0−last and % extrapolated).
# db/db mice = conditions: 30 and 100 mg/kg PO QD 7 days, no increased effect at 300 mg/kg
# C57/Bl6J DIO mice = assay: Increasing dosages of Compound 72 over 7 days in diet-induced obesity (DIO) mouse model; format: in vivo; conditions: 30 mg/kg PO QD 7 days
# Description: Male C57/Bl6J DIO mice were obtained from The Jackson Laboratory (Sacramento, Calif.). […] Animals were accustomed to these conditions for at least 2 weeks before experimentation and used at approximately 24 weeks of age.
# Significance was accepted when p<0.05.
# Male C57/Bl6J DIO mice were obtained from The Jackson Laboratory (Sacramento, Calif.). […] Animals were accustomed to these conditions for at least 2 weeks before experimentation and used at approximately 26 weeks of age.
AUC(0-t) [2],Structure (SMILES),Cry2 transcripts in liver [1],liver Per2 expression [1],glucose levels during the OGTT (db/db mice),glucose AUC calculated from the OGTT (C57/Bl6J DIO mice)
1.91 µg·h/mL,"O=C1C(F)CCN1CC(O)Cn1c2ccc(F)cc2c2cc(F)ccc21 (centres unmarked) [Compound 9, 1-(3-(3,6-difluoro-9H-carbazol-9-yl)-2-hydroxypropyl)-3-fluoropyrrolidin-2-one]",decrease,suppression,dose dependent reduction in glucose levels,–
–,CN(CCOc1ccc(CC2SC(=O)NC2=O)cc1)c1ccccn1 (centres unmarked) [Rosiglitazone],–,–,–,9858+/−1281 units

# Source: patent US20150284362A1, “CARBAZOLE-CONTAINING AMIDES, CARBAMATES, AND UREAS AS CRYPTOCHROME MODULATORS” (ReSet Therapeutics, Inc., priority 2014, published 2015)
